By UniProt entry, the sequences of proteins in these tests, tags left out. Where a name states a change or a piece, a line headed by the entry shows the natural chain unless it says otherwise.
UniProt P33535: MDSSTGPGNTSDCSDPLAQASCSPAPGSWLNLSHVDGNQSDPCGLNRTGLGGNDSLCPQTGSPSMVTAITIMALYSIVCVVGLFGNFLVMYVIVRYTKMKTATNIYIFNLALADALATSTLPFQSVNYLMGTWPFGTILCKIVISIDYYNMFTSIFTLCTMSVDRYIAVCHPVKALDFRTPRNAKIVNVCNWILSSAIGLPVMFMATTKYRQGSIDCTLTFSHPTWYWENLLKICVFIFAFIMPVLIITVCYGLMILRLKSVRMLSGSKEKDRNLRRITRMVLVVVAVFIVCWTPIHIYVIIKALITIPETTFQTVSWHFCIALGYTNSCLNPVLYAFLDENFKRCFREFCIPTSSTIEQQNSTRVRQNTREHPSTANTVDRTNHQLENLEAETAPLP

According to article PMC6465774 (Frontiers in Pharmacology, 2019):

How the values were obtained:
[1] = biological target: MOR G-protein coupling, rat whole brain membrane homogenates (Rattus norvegicus, UniProt P33535); test: Functional [35S]GTPγS binding assay in rat brain membrane homogenates
[2] = biological target: MOR G-protein coupling, rat whole spinal cord membrane homogenates (Rattus norvegicus, UniProt P33535); test: Functional [35S]GTPγS binding assay in rat spinal cord membrane homogenates; conditions: spinal cord
[3] = STZ treated, 9 weeks, basal = 100%
[4] = STZ treated, 12 weeks, basal = 100%
[5] = read-out: EC50 ± SEM, Diabetic, 9 weeks, STZ treated, 9 weeks
[6] = read-out: EC50 ± SEM, Diabetic, 12 weeks, STZ treated, 12 weeks
[7] = vehicle treated, 9 weeks, basal = 100%
[8] = vehicle treated, 12 weeks, basal = 100%

Substance: 14-O-methylmorphine-6-O-sulfate
- Emax ± SEM, Diabetic, 9 weeks [1, 3]: 140.7 ± 2.1 (n = 6) %
- Emax ± SEM, Diabetic, 12 weeks [1, 4]: 146.1 ± 3.22 (n = 5) %
- EC50 [1, 5]: 33.2 nM
- EC50 [1, 6]: 27.9 nM
- EC50 ([1]; read-out: EC50 ± SEM, Non-diabetic, 9 weeks, vehicle treated, 9 weeks): 29.5 nM
- EC50 ([1]; read-out: EC50 ± SEM, Non-diabetic, 12 weeks, vehicle treated, 12 weeks): 35 nM
- Emax ± SEM, Non-diabetic, 9 weeks [1, 7]: 145.7 ± 2.4 (n = 6) %
- Emax ± SEM, Non-diabetic, 12 weeks [1, 8]: 148.5 ± 3.59 (n = 4) %
- EC50 [2, 5]: 43.4 nM
- EC50 [2, 6]: 43.5 nM
- Emax ± SEM, Diabetic, 9 weeks [2, 3]: 137.3 ± 2.47 (n = 5) %
- Emax ± SEM, Diabetic, 12 weeks [2, 4]: 133.8 ± 2.4 (n = 5) %
- Emax ± SEM, Non-diabetic, 9 weeks [2, 7]: 141.4 ± 2 (n = 6) %
- Emax ± SEM, Non-diabetic, 12 weeks [2, 8]: 135.5 ± 1.88 (n = 6) %

Like-named read-outs stand apart in the source and are kept apart here.
